The values that follow are results of earlier work, collected in PubChem BioAssay AID1811 (Shanghai Institute of Organic Chemistry, 2009).

SMILES strings stand for the structures.

Holding throughout (assay): PubChem AID 1811
For series [1], the target named is purine nucleoside phosphorylase. The conditions noted are these: PDB complex binding affinities from literature; Kd when reported.
A further series has as its target coagulation factor xa. Conditions: PDB complex binding affinities from literature; Ki when reported.
The target of the next series is acetyl-coa carboxylase. The conditions noted are these: PDB complex binding affinities from literature; Kd when reported.
The target in the next series is aiia-like protein. Conditions: PDB complex binding affinities from literature; Ki when reported.
The next series concerns the target epsin. Conditions: PDB complex binding affinities from literature; Kd when reported.
Series [2] has as its target 3-phosphoinositide dependent protein kinase-1. Conditions: PDB complex binding affinities from literature; Ki when reported.
In a further series the target is hiv-1 protease. Conditions: PDB complex binding affinities from literature; IC50 when reported.
A further series concerns the target acetylcholinesterase. The conditions noted are these: PDB complex binding affinities from literature; for IC50: IC50 when reported.
The target in series [3] is leucine-specific binding protein. Conditions: PDB complex binding affinities from literature; Kd when reported.
Another series addresses trypsin i. The conditions noted are these: PDB complex binding affinities from literature; Kd when reported.
The target of another series is trypsinogen. The conditions noted are these: PDB complex binding affinities from literature; Kd when reported.
The target of the next series is coagulation factor x. Conditions: PDB complex binding affinities from literature; Ki when reported.
For a further series, the target named is 1ZXV A. The conditions noted are these: PDB complex binding affinities from literature; Ki when reported.
The target in series [4] is cell division protein kinase 2. The conditions noted are these: PDB complex binding affinities from literature; for IC50: IC50 when reported.
The target in another series is beta-lactamase. The conditions noted are these: PDB complex binding affinities from literature; Ki when reported.
A further series deals with glutamate receptor 2. The conditions noted are these: PDB complex binding affinities from literature; Ki when reported.
Series [5] has as its target heat shock protein 90 alpha. The conditions noted are these: PDB complex binding affinities from literature; IC50 when reported.
The target in the next series is dodecin. The conditions noted are these: PDB complex binding affinities from literature; Kd when reported.
Series [6] has as its target 3-phosphoinositide dependent protein kinase 1. The conditions noted are these: PDB complex binding affinities from literature; IC50 when reported.
Series [7] deals with sialic acid binding protein hi0146. The conditions noted are these: PDB complex binding affinities from literature; Kd when reported.
The target in another series is 1PWP A. Conditions: PDB complex binding affinities from literature; Ki when reported.
Another series has as its target thymidylate kinase. The conditions noted are these: PDB complex binding affinities from literature; Ki when reported.
A further series deals with ribonuclease a. Conditions: PDB complex binding affinities from literature; Ki when reported.
For series [8], the target named is serine/threonine-protein kinase 6. The conditions noted are these: PDB complex binding affinities from literature; IC50 when reported.
The target of a further series is chitinase b. The conditions noted are these: PDB complex binding affinities from literature; Ki when reported.
A further series addresses beta-glucosidase a. The conditions noted are these: PDB complex binding affinities from literature; Kd when reported.
For series [9], the target named is hypothetical protein ydce. The conditions noted are these: PDB complex binding affinities from literature; Ki when reported.
The target of the next series is FK506 binding protein. The conditions noted are these: PDB complex binding affinities from literature; Kd when reported.
Series [10] deals with glutathione s-transferase. Conditions: PDB complex binding affinities from literature; Kd when reported.
Series [11] concerns the target glutathione s-transferase 28 kda. Conditions: PDB complex binding affinities from literature; Kd when reported.
Series [12] has as its target acetyl-coenzyme a carboxylase. Conditions: PDB complex binding affinities from literature; Kd when reported.
In another series the target is collagenase 3 (mmp-13). The conditions noted are these: PDB complex binding affinities from literature; IC50 when reported.

The Kd is the free concentration of one partner at which half of the binding sites on the other are occupied at equilibrium, for simple one-to-one binding. As for `Nc1nc2c(ncn2[C@@H]2O[C@H](CO)[C@@H](O)[C@H]2O)c(=O)[nH]1`, in series [1], the dissociation constant Kd was 80 µM.
For orientation: Ki means the dissociation constant of the complex between target and ligand, obtained from inhibition or displacement. As to `CC(C)N1CCC(NC(=O)c2cc3ccccc3n2Cc2cc(-c3ccc(Cl)s3)on2)CC1`, at coagulation factor xa, the Ki is 0.003 µM.
For `O=C(c1c2ccccc2cc2ccccc12)N1CCC(N2CCC[C@@H](C(=O)N3CCOCC3)C2)CC1`, the equilibrium dissociation constant (Kd) on acetyl-coa carboxylase was 7.2 µM.
With `N[C@H]1CCOC1=O`, the Ki at aiia-like protein is 1100 µM.
Consider `O=P(O)(O)O[C@@H]1[C@H](O)[C@H](O)[C@@H](OP(=O)(O)O)[C@H](OP(=O)(O)O)[C@H]1O`, for which the dissociation constant Kd on epsin is 3.6 µM.
For the compound `O=P(O)(O)OC1[C@H](O)[C@H](OP(=O)(O)O)C(OP(=O)(O)O)[C@H](OP(=O)(O)O)[C@H]1O` (stereo partly specified), the Ki in series [2] was 0.3 µM.
The term IC50 denotes the midpoint of a concentration-inhibition curve. As for `O=C(N[C@H]1c2ccccc2C[C@H]1O)[C@H](Cc1ccccc1)CC(O)C[C@@H](Cc1ccccc1)C(=O)N[C@H]1c2ccccc2C[C@H]1O`, on hiv-1 protease, the 50% inhibitory concentration (IC50) is 0.00067 µM.
As to `O=c1ccc2c([nH]1)CCC[C@@H]2NCCCCCCCCCCCCN[C@H]1CCCc2[nH]c(=O)ccc21`, the inhibition constant (Ki) on acetylcholinesterase (Ki when reported) is 0.0045 µM.
Take `CC(C)C[C@H](N)C(=O)O`: the equilibrium dissociation constant (Kd) in series [3] was 0.4 µM.
In the case of `NCc1ccccc1`, the Kd on trypsin i is 144 µM; on trypsinogen, 321 µM.
For the compound `CC(C)N1CCC(NC(=O)c2cc3ccccc3n2CC(=O)Nc2ccc(Cl)cc2)CC1`, the inhibition constant Ki on coagulation factor x was 0.003 µM.
As to `c1ccc2c(NCCCCCNc3c4c(nc5ccccc35)CCCC4)c3c(nc2c1)CCCC3`, the half-inhibitory concentration (IC50) at acetylcholinesterase is 0.028 µM.
Regarding `O=C(O)CCN1C(=O)/C(=C\c2ccc(-c3ccc(Cl)cc3)o2)SC1=S`, the Ki on 1ZXV A was 0.8 µM.
`CC(=O)N[C@@H](CCCN=C(N)N)C(=O)N[C@@H](CCCN=C(N)N)C(=O)N[C@@H](CC(C)C)C(=O)N[C@@H](CC(N)=O)C(=O)N[C@@H](Cc1cccc(Cl)c1)C(N)=O`: the IC50 in series [4] was 5.6 µM.
As for `O=C(Cc1cccs1)N[C@H]([Al])c1cccc(C(=O)O)c1`, the inhibition constant (Ki) on beta-lactamase was 0.001 µM.
As to `CN1CCc2c(-c3ccc(S(=O)(=O)N(C)C)cc3)cc3c(c2C1)NC(=O)/C3=N/O[C@@H](CCO)C(=O)O`, the inhibition constant (Ki) at glutamate receptor 2 is 0.394 µM.
In the case of `O=S(=O)(Nc1ccc(O)c(-c2c(O)ccc3ccccc23)c1)c1cc(Cl)ccc1Cl`, the half-inhibitory concentration (IC50) in series [5] was 0.7 µM.
In the case of `Cc1nc(C)c(-c2ccnc(N)n2)s1`, in [4], the half-maximal inhibitory concentration (IC50) was 6.5 µM.
`Clc1cccc(Nc2nc(OCC3CCCCC3)c3[nH]cnc3n2)c1`: the IC50 in series [4] is 2.3 µM.
`Cc1cc2nc3c(=O)[nH]c(=O)nc-3n(C[C@H](O)[C@H](O)[C@H](O)CO)c2cc1C`: the dissociation constant (Kd) at dodecin was 0.0358 µM.
`CN(C)CCCn1cc(C2=C(c3c[nH]c4ccccc34)C(=O)NC2=O)c2ccccc21`: the concentration for half-maximal inhibition (IC50) in series [6] is 9 µM.
Regarding `CC(=O)N[C@H]1[C@H]([C@H](O)[C@H](O)CO)OC(C(=O)O)=C[C@@H]1O`, in [7], the dissociation constant (Kd) was 20 µM.
Turning to `Cn1cc(C2=C(c3cn(CCCN)c4ccccc34)C(=O)NC2=O)c2ccccc21`, in series [6], the IC50 is 1 µM.
Regarding `Cc1cc(N)c2cc(NC(=O)Nc3ccc4nc(C)cc(N)c4c3)ccc2n1`, the Ki on 1PWP A was 0.5 µM.
Consider `Cc1cn([C@H]2C[C@H](O)[C@@H](CO)O2)c(=O)[nH]c1=O`, for which the inhibitory constant (Ki) on thymidylate kinase was 27 µM.
As to `Nc1n[nH]c(N)c1N=Nc1ccc(O)cc1`, the Ki in series [4] (Ki when reported) is 13.3 µM.
Turning to `COc1ccc2c3c1O[C@H]1C[C@@H](O)C=C[C@@]31CC[N+](CCCCCCCCN1C(=O)c3ccccc3C1=O)=C2`, the IC50 at acetylcholinesterase was 0.004 µM.
With `O=c1ccn([C@H]2C[C@H](OP(=O)(O)O)[C@@H](CO)O2)c(=O)[nH]1`, at ribonuclease a, the Ki was 18 µM.
Regarding `CC(C)C[C@H](NC(=O)[C@H](CCCN=C(N)N)NC(=O)[C@@H](N)CCCN=C(N)N)C(=O)N[C@@H](CC(N)=O)C(=O)N[C@@H](Cc1ccc(F)cc1)C(N)=O`, in series [4], the IC50 is 0.53 µM.
With `NS(=O)(=O)c1cccc(Nc2nc(OCC3CCCCC3)c3[nH]cnc3n2)c1`, in series [4], the 50% inhibitory concentration (IC50) is 0.21 µM.
Turning to `CO[C@@H](C(=O)N1Cc2[nH]nc(NC(=O)c3ccc(N4CCN(C)CC4)cc3)c2C1)c1ccccc1`, the IC50 in series [8] is 0.013 µM.
As to `CN1CCN(c2ccc(C(=O)Nc3n[nH]c4c3CN(C(=O)Cc3cccs3)C4)cc2)CC1`, in series [8], the half-maximal inhibitory concentration (IC50) is 0.065 µM.
On to `CS(=O)(=O)c1ccc(CN2CCN(c3cn[nH]c3-c3cc(Cl)c(O)cc3O)CC2)cc1`, for which the half-maximal inhibitory concentration (IC50) in [5] is 0.74 µM.
As for `CC(=O)N[C@@H](CCCN=C(N)N)C(=O)N[C@H]1CCCCNC(=O)CNC(=O)[C@H](Cc2ccccc2)NC(=O)[C@H](CC(C)C)NC1=O`, the IC50 in [4] is 19.2 µM.
As for `O=C[C@H]1CCCN1`, on chitinase b, the Ki was 650 µM.
With `O[C@H]1[C@H](O)[C@@H](O)CN2CC[C@H](O)[C@H]12`, the Kd at beta-glucosidase a is 2.1 µM.
For `O=C(O)c1ccccc1`, in series [9], the Ki was 3300 µM.
Take `NCCCCc1ccccc1`: the equilibrium dissociation constant (Kd) on trypsinogen was 36000 µM.
For `CO[C@H]1C[C@@H]2CC[C@@H](C)[C@@](O)(O2)C(=O)C(=O)N2CCCC[C@H]2C(=O)O[C@H]([C@H](C)C[C@@H]2CC[C@@H](O)[C@H](OC)C2)CC(=O)[C@H](C)/C=C(\C)[C@@H](O)[C@@H](OC)C(=O)[C@H](C)C[C@H](C)/C=C/C=C/C=C/1C`, the Kd at FK506 binding protein is 0.0002 µM.
Take `CN(C)C[C@@H](O)COc1ccc(Nc2ncc(Br)c(Nc3ccccc3)n2)cc1`: the IC50 in series [4] was 28 µM.
Take `Cc1cc2nc3[nH]c(=O)[nH]c(=O)c3nc2cc1C`: the Kd at dodecin is 0.00988 µM.
Consider `N[C@@H](CCC(=O)N[C@@H](CS)C(=O)NCC(=O)O)C(=O)O`, for which the Kd in [10] was 3 µM.
Regarding `N[C@H](CCC(=O)N[C@@H](CS)C(=O)NCC(=O)O)C(=O)O`, the equilibrium dissociation constant (Kd) in [11] was 22 µM.
Regarding `CO[C@H]1CCCC[C@@H](c2ccccc2)OC(=O)[C@@H](C)[C@@]2(O)O[C@H]([C@@H](C)[C@H](O)[C@H]2OC)[C@@H](C)/C=C/[C@H]1OC`, in series [12], the Kd is 0.0039 µM.
Turning to `CCOCCC1(Oc2ccc(Oc3ccc(F)cc3)cc2)C(=O)NC(=O)NC1=O`, the IC50 on collagenase 3 (mmp-13) is 0.00087 µM.
